# B1: XLF (natural protein)
# chain: MEELEQGLLMQPWAWLQLAENSLLAKVFITKQGYALLVSDLQQVWHEQVDTSVVSQRAKELNKRLTAPPAAFLCHLDNLLRPLLKDAAHPSEATFSCDCVADALILRVRSELSGLPFYWNFHCMLASPSLVSQHLIRPLMGMSLALQCQVRELATLLHMKDLEIQDYQESGATLIRDRLKTEPFEENSFLEQFMIEKLPEACSIGDGKPFVMNLQDLYMAVTTQEVQVGQKHQGAGDPHTSNSASLQGIDSQCVNQPEQLVSSAPTLSAPEKESTGTSGPLQRPQLSKVKRKKPRGLFS
# Target: the molecule itself
# Assay: cryo-EM structure
protein,measurement,value
B1,stoichiometry N,2

# Source: article PMC8122075 (Nature, 2021)
